# scFv variants of Ab-14 (light chain) against a SARS-CoV-2 spike peptide

Data: MIT Lincoln Laboratory AlphaSeq set, Li et al. 2023, doi:10.1038/s41467-023-39022-2, as distributed in FLAb.

All variants were tested on one target, the spike HR2 peptide PDVDLGDISGINAS (SARS-CoV-2).

Parent scFv Ab-14: VH joined to VL by the linker GGGGSGGGGSGGGGS. Changes lie in the light chain CDRs alone.
VH: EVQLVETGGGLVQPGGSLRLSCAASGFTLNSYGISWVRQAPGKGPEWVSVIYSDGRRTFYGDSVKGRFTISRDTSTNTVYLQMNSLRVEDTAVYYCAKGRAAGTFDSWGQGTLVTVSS
VL: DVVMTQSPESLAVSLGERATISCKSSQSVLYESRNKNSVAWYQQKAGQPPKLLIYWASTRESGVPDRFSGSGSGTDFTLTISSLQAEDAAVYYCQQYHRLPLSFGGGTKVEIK

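The starting antibody came from a phage panning campaign against this peptide. These sequences belong to a second round, designed from the earlier measurements on random variants of the parent. Several design methods are mixed in this list. AlphaSeq pools MATa yeast showing the antibodies with MATalpha yeast showing the peptide. Mating (16 h, 30 °C) was followed by selection of diploids and sequencing of their barcodes. A regression on co-assayed BCL2-family reference pairs converts the normalised counts of each replicate to an apparent Kd. Each pool was mated in six replicate cultures.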

Variants are written as CDR1, CDR2 and CDR3 of the light chain (limits as in the source). Parent: KSSQSVLYESRNKNSVA, WASTRES, QQYHRLPLS. This list holds designs with at most six substitutions. The Kd shown is the geometric mean over detected replicates; a lower Kd is a better binder. A pair that was not seen in any replicate is written "no signal"; this usually means weak binding, but a binder can also be missed. The range of this assay differs from that of the first round, and the authors advise against merging the two. As a blank, each scFv also met three strains without target: over all light chain designs, 4% of these pairings were detected, typically at 430 nM and seldom below 38 nM. Also given: how often the same scFv was detected with the empty control strains. The parent sequence was in this pool as ten entries: three were never detected, three once, and four in most replicates, with averages from 2.2 nM to 240 nM. In the paper, a design with two or fewer of six values counts as a poor binder.

| CDR-L1 | CDR-L2 | CDR-L3 | apparent Kd | seen in | empty controls |
|---|---|---|---|---|---|
| KSSASVLYESRNSNSVA | AASTRES | QQYHRLPLS | 3.2 nM | 6 of 6 | 1 of 18 |
| KQEQSVMGESRNKNSVA | NASTRMS | QQYHRLPLS | 4.3 nM | 6 of 6 | 1 of 18 |
| KLPQSTLYESRNKNSVA | QASTRES | QQYHRLPLS | 2.6 nM | 6 of 6 | 0 of 18 |
| KSEQSVEYESRNCNGVA | WASTRES | QQYHRLPLF | 3.4 µM | 1 of 6 | 3 of 18 |
| KCQQSQLYESRNKNAVA | NASTRED | QQYHRLPLS | 530 pM | 6 of 6 | 0 of 18 |
| KVSQKVLYEGRTKNSVA | NASTRES | QQYHRLPLS | 1.8 nM | 6 of 6 | 1 of 18 |
| KSSYSLLYDSRNKNSVA | WASTRES | QQYARLPLS | no signal | 0 of 6 | 0 of 18 |
| KVLQSVLLESRNSNSVA | NASTREL | QQYHRLPLS | 1.3 nM | 6 of 6 | 1 of 18 |
| KVSQSVLYESRNKNSVA | EASTREK | QQYHRLPLS | 1.6 nM | 6 of 6 | 0 of 18 |
| KLRGSTEYESRNKNSVA | WASTRES | QQYHRLPLS | 5.3 nM | 6 of 6 | 1 of 18 |
| KSSQSVLYESTNKYSVA | WASTRES | QQYHRLPLS | 110 nM | 5 of 6 | 0 of 18 |
| KSSQSVLYESRNKPSVA | WASTRMS | QQVHRLPLS | 430 nM | 2 of 6 | 0 of 18 |
| KSSQSFLYESRNKNSVA | GASTRES | QTYHRLTLS | 23 nM | 5 of 6 | 0 of 18 |
| KMSQEVLFESRNKNSVA | DASTRES | QQYHRLPLS | 410 pM | 6 of 6 | 1 of 18 |
| KMLQSVLYESRNKNSVA | HASTRED | QDYHRLPLS | 3.1 nM | 6 of 6 | 1 of 18 |
| KSSQSVLYESRNCNSVA | WASVRES | QQLHQDPLS | no signal | 0 of 6 | 1 of 18 |
| HSSQSVLYEGRNGNSVA | WASTRES | QQYQRLPLS | 30 nM | 2 of 6 | 0 of 18 |
| KSSISVLYESENKNSVA | EASQRES | QQYHRLPLS | 30 nM | 6 of 6 | 1 of 18 |
| KVSESQDYESRNKNSVA | NASTREE | QQYHRLPLS | 610 pM | 6 of 6 | 1 of 18 |
| KISQSVLYESRNKNAVA | NASQRES | QQYHRLPLS | 1.7 nM | 6 of 6 | 3 of 18 |
| KLSQSQLYESRNKNSVA | NASYRLS | QQYHRLPLS | 630 pM | 6 of 6 | 0 of 18 |
| KSSISYLYESRNKNSVA | AASTREL | QQYHRLPLS | 1.2 nM | 6 of 6 | 0 of 18 |
| KLSQSFLYESRNKNSVA | GASTRES | QNYHRLPLS | 1.2 nM | 6 of 6 | 1 of 18 |
| KSSWSDLMESRNKNSVA | DASTRSS | QQYHRLPLS | 320 pM | 6 of 6 | 2 of 18 |
| KSSQSWLYESRNNNSVA | WASTRES | QQYHRLPLS | 130 nM | 2 of 6 | 0 of 18 |
| KSSYSVLIESHNKNSVA | NASKRES | QQYHRLPLS | 4.0 nM | 6 of 6 | 0 of 18 |
| KSQQSQLYESRNQNSVA | HASTRED | QQYHRLPLS | 1.2 nM | 6 of 6 | 1 of 18 |
| KFSQSWLYEDRNKNSVA | NASQRES | QQYHRLPLS | 380 pM | 6 of 6 | 0 of 18 |
| KMSQSVLYESRNKNSVA | NGSTRES | QQYHRLPLS | 2.1 nM | 6 of 6 | 3 of 18 |
| KVSESELYESRNKNSVA | NASTRES | QQYHRLPLS | 840 pM | 6 of 6 | 2 of 18 |
| KIEQGVLYESRNKNSVA | GASTRES | QQYHRLPLS | 1.4 nM | 6 of 6 | 0 of 18 |
| ILSQSVLYESRNKNSVA | NASTRES | QQYHRLPLS | 1.9 nM | 6 of 6 | 0 of 18 |
| KSQQSVLYESRNKNNVA | HASTRES | QQYHRLPLS | 1.7 nM | 6 of 6 | 1 of 18 |
| KISQSVLYESRNNNSVA | WASIRED | QQYHRLPLS | 6.2 nM | 6 of 6 | 3 of 18 |
| KISQSVLYESRNKNSVA | WASTRSS | QQYHRLPLS | 2.4 nM | 6 of 6 | 0 of 18 |
| KVSQSGLYEQRNKNSVA | NASTRES | QQYHRLPLS | 2.2 nM | 6 of 6 | 0 of 18 |
| KSSQSDLYESRNKNSVA | GASTRES | QAYHRLTLS | no signal | 0 of 6 | 0 of 18 |
| KSSQSVQYESRNKNSVA | WASTREE | QQYHRLPLS | no signal | 0 of 6 | 0 of 18 |
| KQSQSKLYESRNKNSVA | DASTRES | QQYHRLPLS | 480 pM | 6 of 6 | 1 of 18 |
| KSGAGVLYESRNKNSVA | GASTRES | QQYHRLPLS | 1.9 nM | 6 of 6 | 0 of 18 |
| KSQQSEPYESRNKNSVA | NASTRES | QQYHRLPLS | 1.4 nM | 6 of 6 | 0 of 18 |
| KSSQSDRYESRNKNQVA | RASTRES | QQMHRLPLS | 150 nM | 2 of 6 | 0 of 18 |
| KLSQSVLYESRCKNSVA | EASTRES | QQYHRLPLS | 1.7 nM | 6 of 6 | 1 of 18 |
| KSSQSVLYESNNKNSVA | WGSTRES | QQYHRLPLS | 4.9 nM | 6 of 6 | 2 of 18 |
| KVSPSVLYESRTKNSVA | NASTRES | QQYHRLPLS | 520 pM | 6 of 6 | 1 of 18 |
| KLSQSKLYESRNKNSVA | NASTREM | QQYHRLPLS | 1.3 nM | 6 of 6 | 0 of 18 |
| MSSQEVLWESRNTASVA | WASTRES | QQYHRLPLS | 160 nM | 1 of 6 | 1 of 18 |
| KLSQSMLYESRNVNSVA | SASTRES | QQYHRLPLM | 910 pM | 6 of 6 | 0 of 18 |
| KLSQSVLYESRMKNSVA | NASQRLS | QQYHRLPLS | 1.3 nM | 6 of 6 | 2 of 18 |
| KSSQSVLYESRNKNSVA | WAKTRES | QQYHRLPLS | 420 nM | 4 of 6 | 1 of 18 |
| KFEQSQLYESRNKNSVA | NASTRES | QQYHRLPLS | 2.0 nM | 6 of 6 | 2 of 18 |
| KLANSTLYESRQPNSVA | WASTRES | QQYHRLPLS | 8.9 nM | 6 of 6 | 2 of 18 |
| KSSQDVLLGSRNKNSVA | WASTRES | QSYHRLPLS | 110 nM | 6 of 6 | 0 of 18 |
| RVSQSVLYESRNKNSVA | DASTRES | QQYHRLPLS | 390 pM | 6 of 6 | 1 of 18 |
| KLSQSVMYESRNKNSVA | NASTRED | QQYHRLPLS | 630 pM | 6 of 6 | 0 of 18 |
| KSSQSVLYESCNKNSVA | DASTRES | QQKHRLPLS | no signal | 0 of 6 | 0 of 18 |
| KQSQSVLFEPRNKNSVA | DASTRES | QQYHRLPLS | 420 pM | 6 of 6 | 2 of 18 |

The first 5 variants above that were never detected:

| CDR-L1 | CDR-L2 | CDR-L3 | apparent Kd | seen in | empty controls |
|---|---|---|---|---|---|
| KSSYSLLYDSRNKNSVA | WASTRES | QQYARLPLS | no signal | 0 of 6 | 0 of 18 |
| KSSQSVLYESRNCNSVA | WASVRES | QQLHQDPLS | no signal | 0 of 6 | 1 of 18 |
| KSSQSDLYESRNKNSVA | GASTRES | QAYHRLTLS | no signal | 0 of 6 | 0 of 18 |
| KSSQSVQYESRNKNSVA | WASTREE | QQYHRLPLS | no signal | 0 of 6 | 0 of 18 |
| KSSQSVLYESCNKNSVA | DASTRES | QQKHRLPLS | no signal | 0 of 6 | 0 of 18 |